Experiments:
in vitro = details: human, hepatocytes
[1] = In vivo dose escalation, rat (oral)

Row | half-life (in vitro) | Cmax ([1]; 3 mg/kg) | bioavailability ([1]; 3 mg/kg) | Cmax ([1]; 10 mg/kg) | bioavailability ([1]; 10 mg/kg) | Cmax ([1]; 30 mg/kg) | bioavailability ([1]; 30 mg/kg) | Cmax ([1]; 100 mg/kg) | bioavailability ([1]; 100 mg/kg) | half-life ([1]; 3 mg/kg) | half-life ([1]; 10 mg/kg) | half-life ([1]; 30 mg/kg) | half-life ([1]; 100 mg/kg) | SMILES
1 | 283 min | 127 ng/mL | 45% | 338 ng/mL | 42% | 1740 ng/mL | 76% | 2980 ng/mL | 46% | – | – | – | – | Cc1cc(-c2cnc3cc(-c4ccc(N5CCNCC5)cc4)ccn23)c2ccccc2n1 [Compound 25]
2 | – | 95 ng/mL | – | 294 ng/mL | – | 1390 ng/mL | – | 3480 ng/mL | – | 227 min | 270 min | 402 min | 954 min | Cc1cc(-c2cnc3cc(-c4ccc(N5CCNCC5)cc4)ccn23)c2cc(F)cc(F)c2n1 [Compound 17]
